Experimental data reported in patent publication US12616750B2, “Combination therapy utilizing DNA alkylating agents and ATR inhibitors” (Merck Patent GmbH, priority 2018, dated 2026).
Like-named read-outs stand apart in the source and are kept apart here.

Tests used:
MDA-MB-468 cells = assay: MNED curve-shift assay; format: cell-based; conditions: MDA-MB-468 (HER2-negative)
Text: (§1) Therefore a curve-shift assay system was established. In a first step, a dose-response curve (DRC) is obtained by treating a certain cell line with an inhibitor. The maximum non-efficacious dose (MNED) can be derived from this DRC. MNED is the highest dose, that can be added to a certain cell line without affecting the viability. The activity of the ADC is confirmed in a separate experiment. Finally, a combination experiment can be conducted. Therefore, the ADC and ADC plus inhibitor at MNED are added to the cells. The inhibitor is tested in parallel at MNED as a control. Due to the application of inhibitor at MNED, no reduction in cell viability caused by the inhibitor is expected. Three outcomes are possible: 1) The combination of ADC plus inhibitor is equipotent as the ADC only. […] Such a result would be interpreted as depotentiation. […] In this case, the potency of the ADC is potentiated.
(§2) Potentiation effects are expressed as dose-reduction indices (DRI), which can be calculated by dividing the IC50-value of ADC by the IC50-value of ADC plus inhibitor according to eq. 1
(§3) Evaluation was performed using GraphPad Prism version 6.05.
(§4) The determination of dose-reduction indices (DRI) in a maximum non-efficacious dose (MNED) curve-shift assay is a 3-step process as depicted exemplarily in FIG. 13. The cytotoxicity of the ADC is confirmed in a cell viability assay in an initial step. […] In the second step. the MNED of the ATRi was determined. […] In order to obtain a full […] for the combination, the starting concentration of the ADC was lowered compared to the experiment in step 1.

Calu-3 cells = assay: MNED curve-shift assay; format: cell-based; conditions: read-out: IC50 of ADC + AZD6738, AZD6738 constant at MNED (400 nM)
Text: as §1, §2, §3, §4

HCC-1954 cells [1] = assay: MNED curve-shift assay; format: cell-based; conditions: read-out: IC50 of ADC + AZD6738, AZD6738 constant at MNED (250 nM)
Text: as §1, §2, §3, §4

HCC-1954 cells [2] = assay: Dose-matrix combination assay (synergy score, Loewe model); format: cell-based; conditions: combination with AZD6738; for Synergy score S: HCC-1954, 6 d
Description: (§5) Compounds were added using Tecan D300e liquid. […] Synergy scores were calculated using LOEWE synergy model.
(§6) The screening of synergistic drug combinations can be accomplished by performing a dose-matrix assay. Therefore, two drugs are serial diluted and mixed at every dose level, yielding a dose-matrix. The drug combination can be additive if the effects of the combination are identical to the added effects of the single agents. However, the effects of the combination might also be stronger than the activity of the single agents. This scenario is termed synergy, whereas weaker combination effects compared to the single agents are termed antagonism. A dose-matrix assay is depicted schematically in FIG. 2 which illustrates the outcomes of a dose-matrix assay: additivity, antagonism and synergy.
The screening was conducted by serial diluting the duocarmycin derivative DUBA (10) and the DDR inhibitors. […] DUBA was combined in a dose-matrix assay with hycanthone. The cell viability was measured after 6 d of treatment using the CellTiter-Glo assay kit. The signals of the cell viability assay were normalized to untreated cells and fitted. […] By subtracting the modeled data from the fitted data, an excess matrix was generated. The excess matrix can be considered as a visualization of the differences between model and actual data which also highlights spots of either high synergy or antagonism. The quantification of the combination effects, however, was performed by calculating synergy scores. […]
The scattering of S was determined in a sham control experiment to define a cutoff for classifying a combination as truly synergistic or antagonistic. Thus seven different compounds were combined with itself on four different cell lines and the three-σ confidence interval was calculated around the mean of the measurement. […]
Synergy scores (S) were obtained from the combination experiments that indicated additivity […] if model and actual response were equal. […] The magnitude of the score determined the extent of the combination effects.

NCI-N87 cells = assay: Cytotoxicity (cell viability, CellTiter-Glo, 6 d); format: cell-based; conditions: NCI-N87, agent alone, 384-well format (footnote a)
Description: as §5

[3] = system: HCC-1954, Calu-3, SK-BR-3 and MDA-MB-468 cells; assay: MNED curve-shift assay, DRIs condensed regardless of cell line; format: cell-based; conditions: ADC combined with ATRi (AZD6738, VE-822) at MNED
Text: as §1, §2

MDA-MB-453 cells = assay: Dose-matrix combination assay (synergy score, Loewe model); format: cell-based; conditions: combination with AZD6738
Description: as §5, §6

HCC-1954 cells [4] = assay: Cytotoxicity (cell viability, CellTiter-Glo, 6 d); conditions: HCC-1954, 6 d

Substance	IC50 (MDA-MB-468 cells; VE-822 constant at MNED (300 nM), read-out: IC50 of ADC + VE-822) [nM]	IC50 (MDA-MB-468 cells; read-out: IC50 of ADC + AZD6738, AZD6738 constant at MNED (300 nM)) [nM]	IC50 (Calu-3 cells) [nM]	IC50 (HCC-1954 cells [1]) [nM]	Synergy score S (HCC-1954 cells [2])	Synergy score, single excluded measurement (HCC-1954 cells [2]; HCC-1954, measurement excluded from the mean)	IC50 (NCI-N87 cells) [nM]	mean DRI, condensed regardless of cell line [3]	Synergy score S (MDA-MB-453 cells)	anti-proliferative effects (in words) (HCC-1954 cells [4])
Kadcyla	31 ± 1	30 ± 1	37 ± 22	0.4 ± 0.2	1.3±0.7	6.4	0.1 ± 0.02	1.3	1.1±0.3	–
trastuzumab: αHER2 mAb, naked antibody	–	–	–	–	−0.2±0.2	–	–	–	–	did not show any anti-proliferative effects
